# Test results published in patent US20260021196A1, “HOMOGENEOUS ANTIBODY-CONJUGATES WITH HIGH PAYLOAD LOADING” (SYNAFFIX B.V., priority 2023, published 2026).
# Test system: NCI-N87 (HER2 3+) cells
# Assay: In vitro cytotoxicity, resazurin cell viability (Examples 131-133)
# Type: cell-based
# Settings: Table 10 / FIG. 24A, mitomycin ADCs with varying DAR, 5 days incubation
# Description: (§1) The cells were incubated for 5 days in a humidified atmosphere at 37° C. and 5% CO2. […] After approximately 4 hours in a humidified atmosphere at 37° C. and 5% CO2 the fluorescence was detected with a fluorescence plate reader (Infinite® M1000 Tecan) at 560 nm excitation and 590 nm emission. The relative fluorescent units (RFU) were normalized to cell viability percentage by setting wells without cells at 0% viability and wells with untreated cells at 100% viability (see FIGS. 22A-22C).
# After approximately 4 hours in a humidified atmosphere at 37° C. and 5% CO2 the fluorescence was detected with a fluorescence plate reader (Infinite® M1000 Tecan) at 560 nm excitation and 590 nm emission. The relative fluorescent units (RFU) were normalized to cell viability percentage by setting wells without cells at 0% viability and wells with untreated cells at 100% viability (see FIGS. 23A-23B).
# as §1, with “24A-24B).” for “22A-22C).”
substance,measurement,value
trastuzumab-(72)2,IC50,0.25 nM
